Assay outcomes: PubChem, National Center for Advancing Translational Sciences (NCATS)
This is a sample that favours compounds with a hit; in the whole collection about 3.7% have one here.
p53 reactivator: restores transcriptional activity of mutant p53; H1299 p53-A138V BP100-luciferase reporter, luminescence, 24 h; Potency, µM (top dose mostly 92.2 µM), without a hit: at the highest dose activity change, positive = activation, actives largely listed as activators; actives 0.063% (n = 320,000); AID 504706; note: potency is the fitted concentration of half-maximal effect; % of control where 0% means no effect; nearly all actives have a fitted effect of over 45% in size
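p53-null H1299 cells stably carrying temperature-sensitive p53-A138V and a BP100-luciferase reporter were pinned with compounds (4-point, 1:5 series) and held 24 hrs at 37 deg C. Luminescence was read 10 min after detection reagent.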
miR-21 reporter: miR-21 reporter, rising signal; HeLa miR-21 FLuc reporter, luciferase, 48 h; Potency, µM (titrated, usually from 38.3 µM), for the others: at the top dose reporter change, positive = more light; 340,000 tested, under 10 active; AID 2288; active = well fitted rising curve with a large enough effect; inconclusive = small, poorly fitted or top-dose-only effect; inactive = no such curve, though single readings can be large or run the other way;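 also: % of control where 0% means no effect; miR-21 action dims this reporter so a rising signal means less miR-21 action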
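HeLa cells stably expressing CMV-driven firefly luciferase with a downstream miR-21 binding sequence, endogenously expressing miR-21, were treated with titrations (up to about 40uM final) for 48 hours at 37 degree Celsius. Luciferase luminescence was read after lysis.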
Nrf2 block: inhibitors of Nrf2 signaling | actives 2.1% (n = 360,000) | A549 ARE-Fluc reporter, luciferase luminescence, 18-24 h | AID 504444 | Potency, µM (highest dose often 46 µM), inactives show top-dose activity change, negative = inhibition, most hits filed as inhibitors; note: potency is the fitted concentration of half-maximal effect; % is set by controls: 0 for no effect and ±100 for the full control effect; nearly all actives have a fitted effect of over 60% in size
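Two sequential reads on A549 ARE_Fluc cells exposed to compound for 18-24 h: a CellTiter-Fluor fluorescence read for viability, then a luciferase luminescence read for Nrf2/ARE activity.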
ClpP mod: qHTS Assay for Activators of ClpP; ATP-dependent Clp protease proteolytic subunit (Bacillus subtilis (strain 168)), P80244; purified B. subtilis ClpP, FRET peptide cleavage, 20 min; Potency, µM (series often up to 57.5 µM), for the others: at the highest dose activity change, negative = active; actives 1.9% (n = 340,000); AID 651965, 2013; active = well fitted falling curve with a large enough effect; inconclusive = small, poorly fitted or top-dose-only effect; inactive = no such curve, though single readings can be large or run the other way; note: potency is the fitted concentration of half-maximal effect; the source files actives as falling curves though it sought activators and does not explain the sign; nearly all actives have a fitted effect of over 65% in size
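Purified B. subtilis ClpP, 10 microg/mL final in Tris/HCl pH8 with KCl, BSA, glycerol and Tween-20, cleaved an Abz/nitrotyrosine-quenched decapeptide. Fluorescence (ex 320, em 430) was read at 0 and 20 min at room temperature. Delta was normalized to 5.8 microM ADEP and DMSO/no-enzyme controls.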
Nrf2 activator: Nrf2 pathway activation; AREc32 ARE-luciferase reporter (MCF7-derived line), luminescence, 24 h; Potency, µM (titrated, usually from 46.1 µM), for the others: at the top dose activation, hits mostly activators; actives 0.31% (n = 410,000); note: potency is the fitted concentration of half-maximal effect; % of control where 0% means no effect; nearly all actives have a fitted effect of over 65% in size
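AREc32 cells carrying an ARE-driven firefly luciferase, 1000 cells/well in OPTI-MEM with 5% FBS, dosed after overnight attachment and incubated 24 hr at 37 deg C. Steady-Glo luminescence read after 30 min at RT.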
A549 viability: kills or reduces viability of A549 cells in Nrf2 counter-screen; Potency, µM (highest dose often 46 µM), without a hit: top-dose activity change, negative = cytotoxicity, actives largely listed as inhibitors; A549 ARE-Fluc cells, CellTiter-Fluor viability, 18-24 h; actives 0.16% (n = 390,000); AID 504648; note: potency is the fitted concentration of half-maximal effect; % is set by controls: 0 for no effect and ±100 for the full control effect
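A549 ARE_Fluc cells in 5% FBS OPTI-MEM were exposed to compounds in concentration-response for 18-24 h at 37 deg C. Viability was read by CellTiter-Fluor fluorescence (Ex 405/Em 525) after 30 min, before the luciferase read.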
The depositor's hits bear a star; ? = inconclusive; . = no result given. Unless noted, calls come from the whole dose curve; as a rule, active = well fitted curve in the direction sought with a large enough effect; inconclusive = small, poorly fitted or top-dose-only effect, or another doubt; inactive = no such curve, though single readings can be large; an effect the other way counts as inactive or inconclusive.

By UniProt entry, the sequences of proteins in these tests, tags left out.
ATP-dependent Clp protease proteolytic subunit (Bacillus subtilis (strain 168)), P80244, UniProt P80244, whole entry, looked up: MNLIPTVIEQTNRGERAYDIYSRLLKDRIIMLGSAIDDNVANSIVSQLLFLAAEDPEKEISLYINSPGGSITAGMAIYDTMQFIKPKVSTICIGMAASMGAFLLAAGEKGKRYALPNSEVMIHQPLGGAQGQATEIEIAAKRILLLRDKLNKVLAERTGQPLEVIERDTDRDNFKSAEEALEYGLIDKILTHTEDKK

[1] COc1ccccc1N1CCN(C(=O)c2cc3c(=O)n(Cc4cccnc4)ccc3nc2C)CC1
[2] O=C(COc1coc(CN2CCc3ccccc3C2)cc1=O)N1CCOCC1
[3] Cc1ccccc1-n1nc(C)c2cc(C(=O)N3CCN(S(=O)(=O)c4ccc(Cl)cc4)CC3)sc21
[4] CC(=O)c1ccc(S(=O)(=O)N2CCN(C(=O)c3ccc(-n4nc(C)c(Cl)c4C)cc3)CC2)cc1
[5] Cc1ccccc1-n1nc(C)c2cc(C(=O)N3CCN(S(=O)(=O)c4ccc(F)cc4)CC3)sc21
Compound	1	2	3	4	5
p53 reactivator	.	-1%	5%	-9%	-3%
miR-21 reporter	0%	.	-3%	.	-13%
Nrf2 block	-17%	7%	13µM*	26µM*	.
ClpP mod	?	28µM*	-2%	-3%	-2%
Nrf2 activator	1%	0%	3%	0%	0%
A549 viability	-1%	11%	-27%	0%	-2%

[6] CCC(C)C(=O)Nc1nc(C)c(-c2csc(Nc3cc(Cl)ccc3OC)n2)s1 (stereo not given)
[7] CCCC(C)C(=O)Nc1nc(C)c(-c2csc(Nc3ccccc3OC)n2)s1 (stereo not given)
[8] CCCC(C)C(=O)Nc1nc(C)c(-c2csc(Nc3ccc(Cl)cc3)n2)s1 (stereo not given)
[9] CCC(C)C(=O)Nc1nc(C)c(-c2csc(Nc3cc(OC)ccc3OC)n2)s1 (stereo not given)
[10] CCN(CC)c1ccc(NC(=O)c2c(C)nn(-c3ccc(F)cc3)c2-n2cccc2)c(C)c1
Compound	6	7	8	9	10
p53 reactivator	6%	-1%	13%	-14%	.
miR-21 reporter	25%	20%	22%	9%	17%
Nrf2 block	8.2µM*	-21%	15µM*	?	?
ClpP mod	-8%	-12%	-7%	-24%	-17%
Nrf2 activator	0%	4%	4%	0%	1%
A549 viability	-4%	-3%	-12%	-8%	-3%

Just miR-21 reporter, A549 viability and Nrf2 block, for some of the entries so far:
| item | canonical_smiles | miR-21 reporter | A549 viability | Nrf2 block |
| --- | --- | --- | --- | --- |
| 6 | CCC(C)C(=O)Nc1nc(C)c(-c2csc(Nc3cc(Cl)ccc3OC)n2)s1 (stereo not given) | 25% | -4% | 8.2µM* |
| 7 | CCCC(C)C(=O)Nc1nc(C)c(-c2csc(Nc3ccccc3OC)n2)s1 (stereo not given) | 20% | -3% | -21% |

The results go on.
[11] O=C(C=P(c1ccccc1)(c1ccccc1)c1ccccc1)c1ccccc1-c1ccccc1C(=O)C=P(c1ccccc1)(c1ccccc1)c1ccccc1
[12] O=C(NNC(=O)c1ccccc1-c1ccccc1C(=O)O)c1ccccc1
[13] Cc1cc(S(=O)(=O)Nc2ccc3ccccc3c2)c(C)s1
[14] Cc1cc(S(=O)(=O)Nc2cc(C)c(O)c(C)c2)c(C)s1
[15] CC(=O)Nc1ccc2nc3c(=O)n(C)c(=O)n(C)c3nc2c1C
Compound	11	12	13	14	15
p53 reactivator	.	2%	-3%	8%	.
miR-21 reporter	.	-1%	21%	0%	-1%
Nrf2 block	2.1µM*	6%	-114%	10µM*	-19%
ClpP mod	-14%	.	-2%	-2%	-5%
Nrf2 activator	0%	0%	0%	?	-1%
A549 viability	4.6µM*	-11%	?	-6%	-6%

[16] CSc1ccccc1-c1nnc(-c2ccc(Cl)cc2Cl)o1
[17] CSc1ccccc1-c1nnc(-c2ccc(Cl)c(Cl)c2)o1
[18] CCOC(=O)CCCN1C(=O)CCn2nc(-c3cn(C)c4ccccc34)cc21
[19] O=C(C=Cc1ccc2c(c1)OCO2)OCC=Cc1ccc2c(c1)OCO2
[20] COc1cc(C=CC(=O)OCC=Cc2ccc3c(c2)OCO3)cc(OC)c1OC
Compound	16	17	18	19	20
p53 reactivator	?	?	.	.	.
miR-21 reporter	-33%	-14%	-8%	.	.
Nrf2 block	7%	?	16%	19%	?
ClpP mod	35µM*	?	-7%	.	28µM*
Nrf2 activator	2%	0%	1%	0%	0%
A549 viability	0%	-4%	-1%	11%	4%

The closing 3 records of the part above come first, to join the parts:
[18] CCOC(=O)CCCN1C(=O)CCn2nc(-c3cn(C)c4ccccc34)cc21
[19] O=C(C=Cc1ccc2c(c1)OCO2)OCC=Cc1ccc2c(c1)OCO2
[20] COc1cc(C=CC(=O)OCC=Cc2ccc3c(c2)OCO3)cc(OC)c1OC
[21] COc1cc(C2CC(=O)c3cnc(N4CCN(Cc5ccccc5)CC4)nc3C2)cc(OC)c1OC (stereo not given)
[22] COc1ccc(C2CC(=O)c3c(C)nc(N4CCN(Cc5ccccc5)CC4)nc3C2)cc1OC (stereo not given)
[23] CC(=O)N1CCCC(C)(C(=O)Nc2ccc3oc(C)nc3c2)C1 (stereo not given)
[24] Cc1[nH]c2ccccc2c(=O)c1C(=O)/C=C/c1ccccc1
[25] O=C(C=Cc1ccccc1)c1c[nH]c2ccccc2c1=O
Compound	18	19	20	21	22	23	24	25
p53 reactivator	.	.	.	-9%	5%	.	-12%	.
miR-21 reporter	-8%	.	.	17%	?	.	?	.
Nrf2 block	16%	19%	?	?	18µM*	.	18µM*	2%
ClpP mod	-7%	.	28µM*	-3%	-10%	-2%	-4%	.
Nrf2 activator	1%	0%	0%	0%	0%	-1%	?	?
A549 viability	-1%	11%	4%	?	.	.	?	4%

[26] O=S(=O)(Nc1cccc2ccccc12)N1CCCC1
[27] O=S(=O)(Nc1cccc2ccccc12)c1ccccc1F
[28] O=C(NCCc1ccccc1)c1ccccc1NS(=O)(=O)N1CCCC1
[29] Cc1cccc(C)c1NC(=O)CSc1nc(C)c(CC(=O)c2ccc(Br)cc2)c(C)c1C#N
[30] COc1ccc(-c2cc(-c3ccccc3)n3ncnc3n2)cc1
Compound	26	27	28	29	30
p53 reactivator	2%	4%	?	-2%	-21%
miR-21 reporter	-11%	-32%	-34%	-2%	-13%
Nrf2 block	-13%	-22%	3%	?	3%
ClpP mod	28µM*	.	14µM*	28µM*	32µM*
Nrf2 activator	3%	2%	2%	0%	4%
A549 viability	0%	2%	-6%	-14%	15%

[31] COc1ccc(-c2cc(N3CCCC3)n3ncnc3n2)cc1
[32] CCn1cc([N+](=O)[O-])c(C(=O)Nc2ccn(Cc3ccccc3F)n2)n1
[33] Cc1ccccc1Cn1ccc(NC(=O)c2nn(C)cc2[N+](=O)[O-])n1
[34] CC(=O)c1sc(C(C)(C)C)cc1NC(=O)CCC(=O)O
[35] CC(=O)c1sc(C(C)(C)C)cc1NC(=O)/C=C/C(=O)O
Compound	31	32	33	34	35
p53 reactivator	-3%	4%	-17%	0%	7%
miR-21 reporter	0%	-2%	-1%	-2%	3%
Nrf2 block	-23%	6%	3%	-28%	-20%
ClpP mod	-21%	0%	28µM*	.	.
Nrf2 activator	2%	0%	16%	0%	16µM*
A549 viability	2%	13%	2%	3%	-1%

[36] CC1=CC(C)C2C(=O)N(c3ccccc3)NC(=O)C2C1 (stereo not given)
[37] O=C1CCc2cc(S(=O)(=O)Nc3ccccc3-c3ccccc3)ccc2N1
[38] COc1ccc(OCC(=O)NNc2c3ccccc3nc3ccccc23)cc1
[39] CC(C)(C)c1ccc(-c2n[nH]c(=S)n2-c2ccccc2)cc1
[40] Cc1ccc(-n2c(-c3ccccc3)n[nH]c2=S)cc1
[41] O=C(NC1CCCC1)c1cc(-c2ccccc2)nc2ccccc12
[42] O=C(NC1CCCC1)c1ccccc1-c1ccccc1
[43] O=C(NCCO)C(=O)Nc1c2c(nn1-c1ccc(F)cc1)CSC2
Compound	36	37	38	39	40	41	42	43
p53 reactivator	-1%	.	-3%	12%	0%	.	-2%	.
miR-21 reporter	-1%	.	?	-8%	-1%	-1%	-3%	-3%
Nrf2 block	14%	-8%	21µM*	-16%	-2%	5%	0%	.
ClpP mod	16µM*	.	7%	8.9µM*	-9%	0%	32µM*	1%
Nrf2 activator	-1%	.	-1%	3%	-1%	1%	-1%	0%
A549 viability	-3%	1%	?	3%	-4%	-14%	-7%	5%
